Yeast mating assay 1: variants of the scFv Ab-14

The target is the same throughout: PDVDLGDISGINAS, from the HR2 region of SARS-CoV-2 spike.

Each scFv is VH, three GGGGS repeats, VL, as in the parent Ab-14, and differs from it in the CDRs of the heavy chain only.
VH: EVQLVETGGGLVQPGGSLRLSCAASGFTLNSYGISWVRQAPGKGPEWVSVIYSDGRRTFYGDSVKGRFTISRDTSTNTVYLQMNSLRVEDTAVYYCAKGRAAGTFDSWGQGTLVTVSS
VL: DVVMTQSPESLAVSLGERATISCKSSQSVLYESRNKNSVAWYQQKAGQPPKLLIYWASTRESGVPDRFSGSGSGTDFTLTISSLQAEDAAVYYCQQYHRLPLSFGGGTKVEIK

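AAYL49 was designed without a model: most single CDR substitutions and a random sample of double and triple ones. The scFvs were displayed on barcoded MATa yeast, the peptide on MATalpha yeast. Mating (16 h, 30 °C) was followed by selection of diploids and sequencing of their barcodes. The ratio of observed to expected reads was calibrated, replicate by replicate, on BCL2-family standards whose Kd was known from biolayer interferometry. Mating was done three times.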

Variants are written as CDR1, CDR2 and CDR3 of the heavy chain (limits as in the source). Parent: GFTLNSYGIS, VIYSDGRRTFYGDSVK, GRAAGTFDS.
This list gathers variants with a substitution at L29 (VH, numbered from residue 1).
Scale: log10 of Kd in nM, estimated from mating counts; low values are strong binders.
A mean of the replicates is given; it leaves out those without a signal.
"nd" marks a missing value. The strain was present, yet no cells mated with the target were sequenced in any replicate, which points to weak or no binding.
Background: pairings of library AAYL49 with three empty control strains gave a value in 15% of cases (median 4.06, 5th percentile 2.83). Values in that range, when seen in few replicates, are hard to tell from nonspecific mating. The control count says in how many pairings with the empty strains this scFv gave a signal.
Parent in this assay: reference entry 0.65, copy in this library 4.11 (one replicate of three).

For GFFINSYGIS | VIYSDGRRTFYGDSVK | GRAIGTFDS, the assay gave 2.17 (3 of 3 replicates; controls 3 of 9). The variant GFTKNSYGIS | VIYSDGRLTFYGDSVK | GRWAGTFDS showed 4.14 (1 of 3 replicates; controls 0 of 9). The variant GFTSNSYGIF | VIYSDGRRTFYGDSVK | GRAAGTFDS showed 4.03 (2 of 3 replicates; controls 0 of 9). For GFTCNSYGIS | VIYSDGRRHFYGDSVK | GRAANTFDS, the assay gave nd (0 of 3 replicates; controls 3 of 9). The variant GFTCNSYGIS | VIYSDGRGTFYGDSVK | GRAAGTFDS gave 4.31 (1 of 3 replicates; controls 5 of 9). For GFTHNSYVIS | VIYSDGRRTFYGDSVK | GRAAGTFDS, the assay gave nd (0 of 3 replicates; controls 0 of 9). For GFTVNSYGIS | VIYSDGRRTFYGDSVK | GRAPNTFDS, the assay gave 3.70 (1 of 3 replicates; controls 2 of 9). For GFNCNSYGIS | VCYSDGRRTFYGDSVK | GRAAGTFDS, the assay gave 2.64 (1 of 3 replicates; controls 0 of 9).

The variant GFTWNSYGIQ | VIYSDGRRTFYGDSVK | GRAAGTFDF showed nd (0 of 3 replicates; controls 0 of 9). With GFTDNSYGIS | VIYCDGRRTFYGDAVK | GRAAGTFDS the result was nd (0 of 3 replicates; controls 0 of 9). For GFTKASYGIS | VIYSDGRRTFIGDSVK | GRAAGTFDS, the assay gave nd (0 of 3 replicates; controls 2 of 9). The variant IFTRNSYGIS | VIYSDGRRTFYGCSVK | GRAAGTFDS gave nd (0 of 3 replicates; controls 1 of 9). The variant NFTWNSYGIS | VIYSDGRRTFYGDSVK | GRAAGTFDS showed 4.43 (1 of 3 replicates; controls 1 of 9). For GFTWNSYGIS | VIYSDGRRTFYGHSVK | GRALGTFDS, the assay gave nd (0 of 3 replicates; controls 2 of 9). With GFTTNMYGIS | VIYSDGRRTFYGDSVK | GRAAGTFDS the result was 2.58 (2 of 3 replicates; controls 0 of 9). The variant GFTFNSYGIS | VIYSDGRRTFYGDSVK | GRWAGTFES showed 2.11 (3 of 3 replicates; controls 0 of 9).

For GFTYNSYGIS | VIYSDGRRTFKGDSVK | GRAAGTFDS, the assay gave 5.12 (2 of 3 replicates; controls 3 of 9). For GFTVNCYGIM | VIYSDGRRTFYGDSVK | GRAAGTFDS, the assay gave 6.03 (1 of 3 replicates; controls 1 of 9). With GKTWNSYGIS | VIYSSGRRTFYGDSVK | GRAAGTFDS the result was nd (0 of 3 replicates; controls 0 of 9). The variant GFTHNSYGIS | VIYSDKRGTFYGDSVK | GRAAGTFDS gave nd (0 of 3 replicates; controls 1 of 9). The variant GFTPNSYGIS | VWYSDGRRTFYGDSVK | GRAAGTFDI gave nd (0 of 3 replicates; controls 0 of 9). For GFTKNSYGIS | VIYSDGRRAFYGDSVK | SRAAGTFDS, the assay gave nd (0 of 3 replicates; controls 0 of 9). The variant GFTGNSYGIS | VIYSDFRRTFYGDSVK | GRAAGTFDW gave nd (0 of 3 replicates; controls 3 of 9). With GFTYNSTGIS | VIYSDGRRTFYGDSVK | GRIAGTFDS the result was 5.74 (2 of 3 replicates; controls 4 of 9).

For GFTYNSHGIS | VIYSDGRRTFYGDSVK | GRLAGTFDS, the assay gave 1.97 (3 of 3 replicates; controls 2 of 9). For GFTWNSYGIS | VIYSDGRRTFYGDSVK | GYAFGTFDS, the assay gave nd (0 of 3 replicates; controls 0 of 9). For GFTMNSYGIS | VIYSDGRRTFYGDSVK | GRAALTFDS, the assay gave nd (0 of 3 replicates; controls 0 of 9). For GFTINSYGIS | IIRSDGRRTFYGDSVK | GRAAGTFDS, the assay gave 3.77 (3 of 3 replicates; controls 4 of 9). The variant YFTCNSYGIS | VIYSDGARTFYGDSVK | GRAAGTFDS gave nd (0 of 3 replicates; controls 0 of 9). The variant GFTTNSYGIS | VIYSDGRRTKYGDSVK | GRAAGTFDT gave 4.53 (1 of 3 replicates; controls 2 of 9). The variant GFTNNSYGIM | VIYSDGRRTFYGGSVK | GRAAGTFDS gave 3.83 (2 of 3 replicates; controls 0 of 9). With GFTTNSYGIS | VIYSDGRRTFYGRSVK | GRAAGTFDS the result was 4.03 (1 of 3 replicates; controls 2 of 9).

The variant KFTINSYGIS | VIYSDGRRTFYGDSVK | GRAAGIFDS showed 1.96 (3 of 3 replicates; controls 5 of 9). With GFTCNSYGNS | VIYSDGRRTFYGDSVK | GRAAGTFDS the result was 4.10 (1 of 3 replicates; controls 0 of 9). For GFTWNSYGIS | VIESDGRRTFYGDCVK | GRAAGTFDS, the assay gave nd (0 of 3 replicates; controls 0 of 9). The variant GFTSNSYGIS | MIYSDGRRTFYGDYVK | GRAAGTFDS showed nd (0 of 3 replicates; controls 1 of 9). With GFWNNSYGIS | VIYSDGRRTFYCDSVK | GRAAGTFDS the result was 3.43 (2 of 3 replicates; controls 1 of 9). With GFTINSYGIS | VIYSDGRRTFYGDSVK | GRWAGTFRS the result was 5.51 (1 of 3 replicates; controls 1 of 9). The variant GFTDNTYGIS | VIYSDGRRTFYGDSVK | GREAGTFDS gave nd (0 of 3 replicates; controls 2 of 9). The variant GFTANSYGIS | VIYSDGRRTFRGDSVK | GRAEGTFDS showed 4.35 (2 of 3 replicates; controls 2 of 9).

The variant GFTINSYGIS | VIYSDGRGTFYKDSVK | GRAAGTFDS gave nd (0 of 3 replicates; controls 1 of 9). With GFTNNSYGIS | VIYSDGRRTFYGDSVK | GRAAGTFDS the result was 3.94 (2 of 3 replicates; controls 7 of 9). With GFTFNSYGIS | VIYSDGRRTFYGDSHK | GRAAGTFDS the result was nd (0 of 3 replicates; controls 0 of 9). With GFTINKYGIS | VIYSDGRRIFYGDSVK | GRAAGTFDS the result was 5.23 (3 of 3 replicates; controls 7 of 9). With GFTMNSYGIS | VIYSDGRRTFYGDSVK | GRYAGDFDS the result was 3.75 (1 of 3 replicates; controls 0 of 9). The variant GFTWNSHGIS | VIYSDGRRTGYGDSVK | GRAAGTFDS showed nd (0 of 3 replicates; controls 0 of 9).

The first 5 entries again:

CDR-H1,CDR-H2,CDR-H3,"mean, log10 nM",seen in,empty controls
GFFINSYGIS,VIYSDGRRTFYGDSVK,GRAIGTFDS,2.17,3 of 3,3 of 9
GFTKNSYGIS,VIYSDGRLTFYGDSVK,GRWAGTFDS,4.14,1 of 3,0 of 9
GFTSNSYGIF,VIYSDGRRTFYGDSVK,GRAAGTFDS,4.03,2 of 3,0 of 9
GFTCNSYGIS,VIYSDGRRHFYGDSVK,GRAANTFDS,nd,0 of 3,3 of 9
GFTCNSYGIS,VIYSDGRGTFYGDSVK,GRAAGTFDS,4.31,1 of 3,5 of 9

Source: Engelhart et al. 2022 (doi:10.1038/s41597-022-01779-4), MIT Lincoln Laboratory and A-Alpha Bio; data file from the FLAb repository.